The entries are a selection whose mix differs from that of the whole data set. The source made the active and inactive calls.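 The calls were made as follows: active = every replicate shows inhibition of at least 40%; inconclusive = mean inhibition at least 40% but some replicate below; inactive = the rest.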

The nature of this experiment: inhibitors of PGC1a acetylation signal, primary screen, cell-based, U2OS, AlphaScreen, inhibitor mode (AID 651687).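 Also: 0% = neutral control wells and 100% = positive control wells.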 The conditions noted are these: AlphaScreen anti-acetyl-lysine, at 15.6 µM, active compounds read high, with virally co-expressed GCN5 acetyltransferase. In general terms: Bead proximity is the source of the signal in Alpha formats.
On to `Nc1cccc2c([As](=O)(O)O)cccc12`, for which the inhibition (usually the drop in the measured response relative to a control, in per cent) is inactive: 0.521%. As for `O=P1(Nc2nc3ccc(Cl)cc3s2)COc2ccccc2O1` (stereo unspecified), the figure is inactive: 0.019%; as for `CCc1cc(O)c([N+](=O)[O-])c(C)c1[N+](=O)[O-]`, inactive: -12.2%; as for `CC(C)(C)C(=O)NC(Sc1ccccc1)C(Cl)(Cl)Cl` (stereo unspecified), inactive: -43.6%. Take `COC(=O)C1(C)COP(=O)(NCc2ccccc2)OC1` (stereo unspecified): the inhibition was inactive: 6.82%. As to `C[C@@H]1C=CCP(=O)(Oc2ccccc2)O1` (stereo partly specified), the inhibition is inactive: 4.06%.

In the case of `Cc1ccccc1CN(C)C(=O)COC(=O)C(O)(c1ccccc1)c1ccccc1`, the inhibition was inactive: -19.3%. As for `CC(=O)Nc1ccc(Oc2c([N+](=O)[O-])cc([N+](=O)[O-])cc2[N+](=O)[O-])cc1`, the inhibition was inactive: -10.1%.

Take `CC(=O)Nc1ccc([As](=O)(O)O)c(O)c1`: the inhibition was inactive: -0.864%. As for `O=C(NC1CCS(=O)(=O)C1)NP(=S)(Oc1ccccc1)Oc1ccccc1` (stereo unspecified), the figure is inactive: -7.19%; as for `CCNC(=S)/N=C(\N)N[N+](=O)[O-]`, inactive: 6.75%. To `Cc1ccc(NP(=O)(Oc2cccc(C)c2)Oc2cccc(C)c2)nc1` belongs inactive: -0.347%; to `c1ccc(-c2nn[nH]n2)c(-c2nn[nH]n2)c1`, inactive: 3.09%; to `O=P1(N(CCCl)CCCl)OCCC2CCCCN21` (stereo unspecified), inactive: -7.49%. As for `CC(=O)NC(SC(=S)N(CC(C)C)CC(C)C)C(Cl)(Cl)Cl` (stereo unspecified), the figure is inactive: -20.8%; as for `Cc1ccc(OP(=O)(Nc2ccccn2)Oc2ccc(C)cc2)cc1`, inactive: -1.05%; as for `COC(=O)c1cc2c(s1)N=C(c1ccccc1)N(C)P2(=O)N1CCOCC1` (stereo unspecified), inactive: 11.6%. For the molecule `CCC(=O)N1C2C3N(C(=O)CC)C1C1N(C(=O)CC)C(C(N1C(=O)CC)N3C(=O)CC)N2C(=O)CC`, the inhibition is inactive: 6.57%. With `O=c1c2cc([N+](=O)[O-])ccc2[nH]c2c([N+](=O)[O-])cc([N+](=O)[O-])cc12`, the inhibition is inactive: 3.97%. As for `Cc1ccccc1OP(=O)(Nc1ccccn1)Oc1ccccc1C`, the inhibition is inactive: -12.8%. In the case of `CC(NC(=O)COC(=O)C(O)(c1ccccc1)c1ccccc1)c1ccccc1` (stereo unspecified), the inhibition is inactive: 2.45%. As for `Nc1ccc(CCCCOc2ccccc2)cc1`, the figure is inactive: -3.92%; as for `COc1ccc(N)c([N+](=O)[O-])c1[N+](=O)[O-]`, inactive: 6.65%; as for `CN(C)C1(CNC(=O)c2ccc(Cl)c(S(N)(=O)=O)c2)CCCCC1`, inactive: 3.4%. As for `O=P(Nc1ccccn1)(c1ccc(Br)cc1)c1ccc(Br)cc1`, the figure is inactive: 26.4%; as for `O=P(Nc1nc2ccccc2s1)(c1ccccc1)c1ccccc1`, inactive: 4.77%. As for `CC(=O)NC(SC(=S)N(C)C)C(Cl)(Cl)Cl` (stereo unspecified), the figure is inactive: 9.19%; as for `O=[N+]([O-])c1ncn(CCn2cnc([N+](=O)[O-])n2)n1`, inactive: -1.01%; as for `O=[N+]([O-])c1ccc(O)c(/C=N/Nc2ccc([N+](=O)[O-])cc2[N+](=O)[O-])c1`, inactive: -9.31%. As for `O=[As](O)(c1ccccc1)c1ccc(O)cc1`, the inhibition is inactive: -15.6%.

For the molecule `Nc1ccc([As](=O)(O)c2ccc([N+](=O)[O-])cc2)cc1`, the inhibition is inactive: -2.89%. Take `O=P(Nc1nccs1)(c1ccccc1)c1ccccc1`: the inhibition is inactive: -0.82%. As for `c1nnnn1CCn1cnnn1`, the figure is inactive: -1.66%; as for `COc1ccc(C2=NCC(CBr)S2)cc1` (stereo unspecified), inactive: -15.8%; as for `CC(=O)N1C2C3N(C(C)=O)C1C1N(C(C)=O)C(C(N1C(C)=O)N3C(C)=O)N2C(C)=O`, inactive: 7.26%. To `O=[N+]([O-])c1cccc2n[nH]nc12` belongs inactive: -0.791%. Consider `O=[N+]([O-])c1cc([N+](=O)[O-])c(CCNc2ccccc2)c([N+](=O)[O-])c1`, for which the inhibition is inactive: 15.8%. To `Cc1ccc(NP(=O)(Oc2ccccc2)Oc2ccccc2)nc1` belongs inactive: 3.8%. To `C[N+]1=C2C=CC=CC=C2SC12C([N+](=O)[O-])=CC([N+](=O)[O-])=C[C-]2[N+](=O)[O-]` (stereo unspecified) belongs inactive: 10.1%.

In the case of `Nc1ccc([As](=O)(O)c2ccc(N)cc2)cc1`, the inhibition was inactive: -6.73%. In the case of `CC(C)c1nc(Nc2ccccc2)n(P(=O)(N(C)C)N(C)C)n1`, the inhibition was inactive: -0.0755%. As for `c1cc(-c2nn[nH]n2)ccc1-c1nn[nH]n1`, the figure is inactive: 6.34%; as for `CC1CCN(C(=O)Oc2c(Cl)cc(Cl)c3cccnc23)CC1`, inactive: -3.37%. As for `O=P1(N(CCCl)CCCl)OCCCS1` (stereo unspecified), the inhibition was inactive: 1.15%. As for `CC(C)(C)C(=O)NC(Sc1ccncn1)C(Cl)(Cl)Cl` (stereo unspecified), the figure is inactive: -7.15%; as for `O=[N+]([O-])c1cccc(NC2=NCC(CBr)S2)c1` (stereo unspecified), inactive: 8.08%; as for `COC(=O)C1(C)COP(=O)(Nc2ccccc2)OC1` (stereo unspecified), inactive: 4.23%. As for `CCCC1OP(N)(=O)OCC1CC` (stereo unspecified), the figure is inactive: 4.49%. As to `O=C(O)c1ccccc1[As](=O)(O)O`, the inhibition was inactive: 0.144%. Take `CN(C)P(=O)(N(C)C)n1c(Nc2ccccc2)nnc1-c1ccccc1`: the inhibition was inactive: -10.2%.

For the molecule `O=P(Nc1nc2ccc(Cl)cc2s1)(c1ccccc1)c1ccccc1`, the inhibition was inactive: 10.1%. As to `CN(C(=O)Cc1ccc(Cl)c(Cl)c1)[C@H]1CCCC[C@@H]1N1CCCC1`, the inhibition is inactive: 5.71%. With `Cc1ccc(NP(=O)(Oc2ccccc2F)Oc2ccccc2F)nc1`, the inhibition was inactive: -12%. To `CCOP(=O)(Nc1ccccc1)OCC` belongs inactive: -9.94%. As for `Nc1cccc2ccc([As](=O)(O)O)cc12`, the figure is inactive: 0.89%; as for `CN(C(=O)Cc1ccc(Cl)c(Cl)c1)[C@H]1CCCC[C@H]1N1CCCC1`, inactive: 2.97%. Consider `Cc1ccc(OP(=O)(Nc2nccs2)Oc2ccc(C)cc2)cc1`, for which the inhibition is inactive: 0.642%. As for `Clc1ccc(Cl)c(NC2=NCC(CBr)S2)c1` (stereo unspecified), the figure is inactive: -11.6%; as for `CN1CCCC(OC(=O)C(c2ccccc2)c2ccccc2)C1` (stereo unspecified), inactive: 8.56%; as for `CC(C)CC(=O)NC(Sc1ccc(Cl)cc1)C(Cl)(Cl)Cl` (stereo unspecified), inactive: -9.63%.

Consider `Oc1ccccc1CNc1ccccn1`, for which the inhibition is inactive: 1.28%.

The values above are taken from PubChem BioAssay AID651687 (Broad Institute, 2012).
